Measurements as given in patent publication US20230212116A1, “SARS-COV-2 MAIN PROTEASE INHIBITORS” (TEXAS A&M UNIVERSITY SYSTEM, priority 2020, published 2023).

The compounds below were run against T1, SARS-CoV-2 M^Pro (Severe acute respiratory syndrome coronavirus 2, UniProt P0DTD1) (assay: biochemical). Settings: not given.

SMILES	IC50
CC(C)(C)CC(=O)N[C@H](C(=O)N1C[C@H]2[C@@H]([C@H]1C(=O)N[C@@H](C[C@@H]1CCNC1=O)C(=O)C(N)=O)C2(C)C)C(C)(C)C [MPI85, (1R,2S,5S)-N-((S)-4-amino-3,4-dioxo-1-((S)-2-oxopyrrolidin-3-yl)butan-2-yl)-3-((S)-2-(3,3-dimethylbutanamido)-3,3-dimethylbutanoyl)-6,6-dimethyl-3-azabicyclo[3.1.0]hexane-2-carboxamide]	147 ± 19 nM
CC(C)(C)C[C@H](NC(=O)[C@@H](NC(=O)NC(C)(C)C)C(C)(C)C)C(=O)N[C@H](C=O)C[C@@H]1CCNC1=O [MPI55, (S)-2-((S)-2-(3-(tert-butyl)ureido)-3,3-dimethylbutanamido)-4,4-dimethyl-N-((S)-1-oxo-3-((S)-2-oxopyrrolidin-3-yl)propan-2-yl)pentanamide]	56.3 ± 3.8 nM
CC(C)(C)NC(=O)N[C@H](C(=O)N1CC2(CC2)C[C@H]1C(=O)N[C@H](C=O)C[C@@H]1CCNC1=O)C(C)(C)C [MPI56, (S)-5-((S)-2-(3-(tert-butyl)ureido)-3,3-dimethylbutanoyl)-N-((S)-1-oxo-3-((S)-2-oxopyrrolidin-3-yl)propan-2-yl)-5-azaspiro[2.4]heptane-6-carboxamide]	23.4 ± 0.2 nM

These compounds were tested against T1, SARS-CoV-2 M^Pro (assay: not given). Settings: read-out: Enzymatic IC50.

SMILES	IC50
CCNC(=O)C(=O)[C@H](C[C@@H]1CCNC1=O)NC(=O)[C@@H]1[C@@H]2[C@H](CN1C(=O)[C@@H](NC(=O)NC(C)(C)C)C(C)(C)C)C2(C)C [MPI58, (1R,2S,5S)-3-((S)-2-(3-(tert-butyl)ureido)-3,3-dimethylbutanoyl)-N-((S)-4-(ethylamino)-3,4-dioxo-1-((S)-2-oxopyrrolidin-3-yl)butan-2-yl)-6,6-dimethyl-3-azabicyclo[3.1.0]hexane-2-carboxamide]	75 ± 9 nM
CC(C)(C)[C@H](NC(=O)OCc1ccccc1)C(=O)N1C[C@H]2[C@@H]([C@H]1C(=O)N[C@H](C=O)C[C@@H]1CCNC1=O)C2(C)C [MPI73, benzyl ((S)-1-((1R,2S,5S)-6,6-dimethyl-2-(((S)-1-oxo-3-((S)-2-oxopyrrolidin-3-yl)propan-2-yl)carbamoyl)-3-azabicyclo[3.1.0]hexan-3-yl)-3,3-dimethyl-1-oxobutan-2-yl)carbamate]	59 ± 7.2 nM
C[C@@H](OC(C)(C)C)[C@H](NC(=O)OCc1ccccc1)C(=O)N1C[C@H]2[C@@H]([C@H]1C(=O)N[C@H](C=O)C[C@@H]1CCNC1=O)C2(C)C [MPI67, benzyl ((2S,3R)-3-(tert-butoxy)-1-((1R,2S,5S)-6,6-dimethyl-2-(((S)-1-oxo-3-((S)-2-oxopyrrolidin-3-yl)propan-2-yl)carbamoyl)-3-azabicyclo[3.1.0]hexan-3-yl)-1-oxobutan-2-yl)carbamate]	120 ± 14 nM
C[C@@H](OC(C)(C)C)[C@H](NC(=O)NC(C)(C)C)C(=O)N[C@@H](CC1CCCCC1)C(=O)N[C@H](C=O)C[C@@H]1CCNC1=O [MPI74, (2S,3R)-3-(tert-butoxy)-2-(3-(tert-butyl)ureido)-N-((S)-3-cyclohexyl-1-oxo-1-(((S)-1-oxo-3-((S)-2-oxopyrrolidin-3-yl)propan-2-yl)amino)propan-2-yl)butanamide]	97 ± 10.6 nM
